Values quoted from earlier work in patent publication US20250152566A1, “USE OF AMINOPYRIDINE, IN PARTICULAR AMIFAMPRIDINE, FOR THE TREATMENT OF A VIRALLY-ASSOCIATED FATIGUE” (priority 2023, published 2025).

Test system: LEMS patients
Conditions: everyday clinical practice, up to a daily maximum dose of 60 mg; cited from earlier work

In the case of Aminopyridine, the “liver and kidney function” value is given as “no impairments of the liver and kidney function”.
